Experimental data reported in patent US9018255B2, “Esters of (acyloxymethyl)acrylamide, a pharmaceutical composition containing them, and their use as inhibitors of the thioredoxin—thioredoxin reductase system” (Instytut Chemii Organicznej Polskiej Akademii Nauk, priority 2010, dated 2015).

Protein sequences, listed by entry. Tags and fused reporters are not part of them. Lines headed by an entry give the natural chain unless they say otherwise; changes in a name come on top.
UniProt P10599: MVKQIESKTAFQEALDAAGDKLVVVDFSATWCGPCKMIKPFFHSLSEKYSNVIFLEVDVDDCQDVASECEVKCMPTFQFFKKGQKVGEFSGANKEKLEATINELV

Biological target: human recombinant thioredoxin (Homo sapiens (Human), UniProt P10599)
Assay: Thioredoxin activity, insulin reduction / DTNB assay with recombinant enzymes
Assay type: biochemical
Conditions: 37° C., 30 min, 0.25 μM thioredoxin, 0.325 μM thioredoxin reductase; read-out: IC50 of thioredoxin inhibition
Protocol: The method of determining thioredoxin activity is based on the reduction of insulin by thioredoxin. Thioredoxin is reconstituted is by thioredoxin reductase, with NADPH. The resulting free thiol —SH groups react with 5,5′-dithiobis-2-nitrobenzoic acid (DTNB). The termination of the reaction results in the formation of a […] colour. The intensity of colouration is determined spectrophotometrically at 412 nm and this corresponds to the number of reduced sulfahydryl groups. The reaction was performed at 37° C. over 30 min. in a buffer containing 50 mM Tris-HCl and 20 mM EDTA at a pH of 7.6. The substrate concentrations used were: 0.25 μM human recombinant thioredoxin and 0.325 μM rat recombinant thioredoxin reductase (IMCO Corporation Ltd AB, Sweden) and 316 μM of insulin, 0.8 μM NADPH, 8 mM DTNB (Sigma Aldrich).

SMILES: CCC(C)SSc1ncc[nH]1 (stereo not shown) [PX-12, 1-methylpropyl-2-imidazole disulphide, reference compound]
- pIC50: 4.81

pIC50: −log10 of the molar value.
